Values quoted from earlier work in US20140371254A1, “NOVEL TREATMENT OF GEFITINIB-RESISTANT NON-SMALL-CELL LUNG CANCER” (Macau University of Science and Technology, priority 2013, published 2014).

Experiments:
Settings in all cases: method not stated; cited from earlier work
H1975 (EGFR^L858R+T790M) = tested on: H1975 (EGFR^L858R+T790M)
[1] = tested on: H1650 (EGFR^Exon19 deletion)
A549 (EGFR^Wild type) = tested on: A549 (EGFR^Wild type)

For COc1cc2ncnc(Nc3ccc(F)c(Cl)c3)c2cc1OCCCN1CCOCC1 [Gefitinib], the “Gefitinib Sensitivity” value (H1975 (EGFR^L858R+T790M)) is given as “Resistant”, the “Gefitinib Sensitivity” value [1] is given as “Resistant” and the “Gefitinib Sensitivity” value (A549 (EGFR^Wild type)) is given as “Moderately”.
